Among the data in US20060100199A1, “Novel condensed imidazole derivatives” (priority 2003, published 2006) are IC50 values, retold here.

Protein sequences, listed by entry. Tags and fused reporters are not part of them. Lines headed by an entry give the natural chain unless they say otherwise; changes in a name come on top.
UniProt P22411: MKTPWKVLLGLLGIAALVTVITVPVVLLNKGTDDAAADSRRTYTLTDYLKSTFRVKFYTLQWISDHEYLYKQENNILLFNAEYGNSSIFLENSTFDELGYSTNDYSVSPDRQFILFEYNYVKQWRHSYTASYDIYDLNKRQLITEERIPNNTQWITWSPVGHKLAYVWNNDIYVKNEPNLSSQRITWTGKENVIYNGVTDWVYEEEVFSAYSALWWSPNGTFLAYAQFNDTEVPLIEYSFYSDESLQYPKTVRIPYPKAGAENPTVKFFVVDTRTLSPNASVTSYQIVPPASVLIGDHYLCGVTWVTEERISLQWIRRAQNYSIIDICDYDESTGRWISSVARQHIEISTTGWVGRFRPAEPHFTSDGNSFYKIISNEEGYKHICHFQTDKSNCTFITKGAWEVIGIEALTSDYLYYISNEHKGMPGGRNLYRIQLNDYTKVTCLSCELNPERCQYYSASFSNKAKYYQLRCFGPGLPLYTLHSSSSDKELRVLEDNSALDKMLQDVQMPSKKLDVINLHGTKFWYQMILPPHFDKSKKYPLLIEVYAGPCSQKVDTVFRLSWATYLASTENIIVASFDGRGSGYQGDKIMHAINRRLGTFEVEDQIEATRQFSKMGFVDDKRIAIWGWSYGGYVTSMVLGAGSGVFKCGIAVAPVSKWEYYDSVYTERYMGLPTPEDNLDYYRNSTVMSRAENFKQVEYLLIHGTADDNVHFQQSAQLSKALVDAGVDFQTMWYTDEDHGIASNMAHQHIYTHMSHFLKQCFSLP

This experiment concerns the target T1, Porcine kidney-derived DPP-IV (Sus scrofa, UniProt P22411).
T1 construct: Porcine kidney-derived DPP-IV was dissolved in a reaction buffer; from tissue; host or cells: porcine kidney
Kind of experiment: DPPIV-inhibiting activity assay. The format is biochemical. As to conditions: Gly-Pro-p-nitroanilide 0.33 mM, reaction time 20 minutes, absorbance at 405 nm. As to the method: DPPIV-Inhibiting Activity Assay
Porcine kidney-derived DPP-IV was dissolved in a reaction buffer (50 mM Tris-HCl (pH 7.4)/0.1% BSA) at a concentration of 10 mg/ml. After 110 μl of this solution had been combined with 15 μl of an agent, the mixture was incubated at room temperature for 20 minutes. 25 μl of 2 mM Gly-Pro-p-nitroanilide was added (to a final concentration of 0.33 mM) to the solution to initiate the enzyme reaction. The reaction time was 20 minutes. 25 μl of 1N phosphoric acid solution was added to the reaction solution to quench the reaction.

pIC50: −log10 of the molar value. Counter-ions that a name gives are not always drawn.

Broadly, the pIC50 is the negative decadic logarithm of the IC50, by convention in mol/L. Higher therefore signals a small IC50.

On to `CC#CCn1c(N2CCNCC2)nc2nc(OC)n(Cc3ccccc3C#N)c(=O)c21` [Example 98, 2-[7-(2-Butynyl)-2-methoxy-6-oxo-8-(piperazin-1-yl)-6,7-dihydropurin-1-ylmethyl]benzonitrile hydrochloride], for which the negative logarithm of the IC50 (pIC50) is 8.01.

`CC#CCn1c(N2CCNCC2)nc2nc(Oc3cccnc3C(N)=O)n(Cc3ccccc3C#N)c(=O)c21` [Example 230, 3-[7-(2-Butynyl)-1-(2-cyanobenzyl)-6-oxo-8-(piperazin-1-yl)-6,7-dihydro-1H-purin-2-yloxy]pyridine-2-carboxylic amide trifluoroacetate] had a pIC50 of 9.05. `CC#CCn1c(N2CCNCC2)nc2nc(SC(C)c3cccs3)n(C)c(=O)c21` (stereo not drawn) [Example 146, 7-(2-Butynyl)-1-methyl-8-(piperazin-1-yl)-2-[1-(thiophen-2-yl)ethylsulfanyl]-1,7-dihydropurin-6-one trifluoroacetate] showed a pIC50 of 7.09. Then `CC#CCn1c(N2CCNCC2)nc2nc(C)n(C)c(=O)c21` [Example 22, 7-(2-Butynyl)-1,2-dimethyl-8-(piperazin-1-yl)-1,7-dihydropurin-6-one trifluoroacetate], with 6.77; and `CC#CCn1c(N2CCNCC2)nc2nc(Sc3nc(C)cs3)n(C)c(=O)c21` [Example 159, 7-(2-Butynyl)-1-methyl-2-(4-methylthiazol-2-ylsulfanyl)-8-(piperazin-1-yl)-1,7-dihydropurin-6-one trifluoroacetate], with 7.42; and `CC#CCn1c(N2CCNCC2)nc2cnn(CC(=O)c3cccc(OC)c3)c(=O)c21` [Example 266, 3-(2-Butynyl)-5-[2-(3-methoxyphenyl)-2-oxoethyl]-2-(piperazin-1-yl)-3,5-dihydroimidazo[4,5-d]pyridazin-4-one trifluoroacetate], with 8.81.
